System: NCI-N87 gastric cancer xenograft
Experiment: Efficacy of anti-human Her2 antibody-drug conjugates in the NCI-N87 subcutaneous tumor-bearing mouse model
Format: in vivo, female Balb/c-Nude mice
Conditions: 1 mg/kg i.v., conjugates of the invention dosed Day 0 and 7, DS8201 Day 0, 7 and 14
Experimental: NCI-N87 cells were cultured in RPMI 1640 medium supplemented with 10% fetal bovine serum at 37° C. and 5% CO2. NCI-N87 cells in the exponential growth phase were harvested, resuspended in PBS to an appropriate concentration, and then subcutaneously inoculated into female Balb/c-Nude mice to establish a gastric cancer model. […] Each group received the administration via tail vein injection (i.v.). The conjugates of the present invention were administered on Day 0 and Day 7, for a total of two doses. […] After administration, tumor diameters were measured twice a week using a vernier caliper, and tumor volume was calculated according to the following calculation formula: V=0.5 a×b^2, where a and b represent the long diameter and short diameter of the tumor, respectively. Animal mortality was observed and recorded daily.
The tumor growth inhibition rate TGI (%) was calculated using the following formula to evaluate the tumor-inhibitory efficacy of the ADCs:
[formula] • where, • VT end: mean tumor volume of the treatment group at the end of experiment • VT0: mean tumor volume of the treatment group at the beginning of administration • VC end: mean tumor volume of the negative control group at the end of experiment • VC0: mean tumor volume of the negative control group at the beginning of administration […]

Q: DS8201 [reference compound] was tested. Which “TGI (%) tumor growth inhibition rate” value (Day 27, vs. Vehicle) did it give?
A: 91.25%

Q: And the “Tumor volume (mm^3) (x ± SEM)” value (Day 27)?
A: 194.7 ± 48.78 mm^3

— US20260241020A1, “Antibody-drug conjugate, and preparation method therefor and use thereof” (priority 2023, published 2026)
